In the library only some 2.8% were active in any assay of this set; here they are far more common.
E-selectin induc = induces E-selectin expression in human endothelial cells. HUVEC E-selectin immunofluorescence imaging; normalized: neutral wells 0, TNF-alpha wells 100. activation, % at 7.58 µM. 0.37% of 260,000 active. P16581. AID 686992;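 active means mean E-selectin-positive cell signal at least 10% of the positive control, reached in at least 60% of replicates, without over 20% cell loss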
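Read-out basis: % PE-positive cells; Test system: HUVEC primary endothelial cells; Technique: immunofluorescence imaging; Dosing: single-point compound dose.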
PglD DTNB = inhibitors of Campylobacter jejuni PglD acetyltransferase | AID 602405 | 0.098% of 360,000 active | inhibition, % at 12.5 µM | purified PglD enzyme, DTNB colorimetric CoA detection; in the data active means inhibition above about 16%, passing the limit was not always enough
esBAF inh = SWI/SNF esBAF complex inhibition. mouse ES cells, Bmi1-luciferase knock-in reporter, 24 h; 100% = twice the neutral-well signal. reporter increase, % at 12.5 µM. 2% of 350,000 active. AID 602393; in the data active means activation above about 40%;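 further: 0% = median of the plate's neutral control wells and 100% = double that signal; a rise in the Bmi1 reporter signal indicates esBAF inhibition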
UUG fidelity = yeast start codon fidelity modulation | S. cerevisiae UUG-firefly luciferase reporter, luminescence/redox ratio | activity score, % at 18.7 µM | hit rate 0.13% among 350,000 | AID 602363;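 active means replicate mean at a twofold rise or more, about +100% in these data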;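 further: firefly luciferase made from a UUG start codon reports start codon fidelity; reporter light over untreated wells divided by growth signal over untreated wells; some hits fall short of that in this replicate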
C2C12 statin = suppression of simvastatin myotoxicity; C2C12 myotubes + simvastatin, ATP luminescence, 48 h; scaled: DMSO 0, geranylgeraniol control 100; rescue of ATP level, % at 7.49 µM; 0.78% of 330,000 active;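 active means mean ATP rescue above about 67%, or every replicate alone reaching that limit, limit read from the data, passing the limit was not always enough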;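 further: myotubes were challenged with 10 µM simvastatin during compound exposure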
PGC1a acetyl inh = modulators of PGC1a acetylation; U2OS PGC1a acetylation, AlphaScreen anti-acetyl-lysine; with virally co-expressed GCN5 acetyltransferase; inhibition, % at 15.6 µM; 0.17% of 350,000 active; AID 651687;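 active means every replicate shows inhibition of at least 40%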;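 further: 0% = neutral control wells and 100% = positive control wells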
An asterisk follows results filed as active; · = no result given.

structure	E-selectin induc	PglD DTNB	esBAF inh	UUG fidelity	C2C12 statin	PGC1a acetyl inh
O=C(OCc1c(Cl)cccc1Cl)c1ccccn1	·	-1	5	-9	35	·
O=C(Cc1c(Cl)cccc1Cl)OCc1ccccn1	·	-4	49*	9	2	·
CO[C@@H]1CN(C)C(=O)c2ccc(NS(=O)(=O)c3ccccc3)cc2OC[C@H](C)NC[C@@H]1C	0	0	-3	-4	-3	-5
CN(C)C(=O)c1ccc(COc2ccccc2Br)o1	·	-124	62*	14	-1	-1
O=C(Nc1nccs1)c1ccc(COc2ccccc2Br)o1	·	0	50*	-22	11	-19
CC(C)c1ccc(OCc2ccc(C(=O)N(C)C)o2)cc1	0	-8	57*	-15	-26	-3
O=C(Nc1nccs1)c1ccc(COc2ccc(F)cc2)o1	·	2	60*	-21	31	-20
O=C(COc1ccc(F)cc1)Nc1nccs1	0	3	28	-26	0	1
CC(C)NC(=O)Nc1ccc2c(c1)C(=O)N([C@@H](C)CO)C[C@@H](C)[C@@H](CN(C)C(=O)CCCN(C)C)OCCCC[C@H](C)O2	0	-4	·	·	·	6
O=C(N1CCOCC1)N1CCN(S(=O)(=O)N2CCOCC2)CC1	·	2	0	-8	114*	5
COC(=O)c1ccc(CSc2nc(N3CCOCC3)c3c(c2C#N)CC(C)(C)OC3)o1	·	0	9	12	81*	-8
COC(=O)C[C@@H]1C[C@H]2c3cc(NC(=O)NC4CCCCC4)ccc3O[C@H]2[C@@H](CO)O1	0	0	2	7	-2	4
CCCNC(=O)NC[C@@H]1CC[C@H]2[C@H](CN2C(=O)C2CCOCC2)O1	·	·	·	·	·	1
CN(c1cccc(NS(=O)(=O)c2cccs2)c1)S(C)(=O)=O	0	8	9	-18	4	51*
CN(C)C(=O)C[C@@H]1C[C@H]2c3cc(NC(=O)NC4CCCC4)ccc3O[C@H]2[C@H](CO)O1	0	-1	2	-5	2	-2
Oc1ccc(COCc2ccccc2)c2cccnc12	·	-1	60*	0	-21	-11
O=C(Nc1ccccc1F)N1C[C@@H]2[C@H](c3ccccc31)[C@@H](CO)N2C(=O)C1CC1	0	-4	49*	-11	0	1
O=C(Nc1ccccc1F)N1C[C@H]2[C@@H](c3ccccc31)[C@H](CO)N2C(=O)C1CCCC1	0	8	20	11	6	-16
COc1ccc(NC(=O)Nc2ccc3c(c2)OC[C@H](C)NC[C@H](C)[C@@H](OC)CN(C)C3=O)cc1	6	·	·	·	·	7
Cc1cnc(C(=O)OCC(=O)NC2CCCCCCC2)cn1	4	·	·	·	·	·

A draw from above in order of length of the SMILES, descending.
structure	E-selectin induc	PglD DTNB	esBAF inh	UUG fidelity	C2C12 statin	PGC1a acetyl inh
O=C(Nc1nccs1)c1ccc(COc2ccc(F)cc2)o1	·	2	60*	-21	31	-20
O=C(Cc1c(Cl)cccc1Cl)OCc1ccccn1	·	-4	49*	9	2	·
Oc1ccc(COCc2ccccc2)c2cccnc12	·	-1	60*	0	-21	-11

Carrying on:
structure	E-selectin induc	PglD DTNB	esBAF inh	UUG fidelity	C2C12 statin	PGC1a acetyl inh
CCN(C(=O)COC(=O)c1cnc(C)cn1)C1CCCCC1	·	-2	-3	-9	135*	10
COc1ccc(/C=C2\CN(Cc3ccccc3)C/C(=C\c3ccc(OC)c(O)c3)C2=O)cc1O	0	-5	-85	-5	99*	·
CCN1C/C(=C/c2ccc(OC)c(O)c2)C(=O)/C(=C/c2ccc(OC)c(O)c2)C1	·	·	·	·	·	-1
O=C(CSc1ncn[nH]1)c1ccccc1	·	8	5	-19	-2	-5
O=C(CSc1ncn[nH]1)c1cccc([N+](=O)[O-])c1	38*	·	·	·	·	·
Cc1cccc(NC2=NC(C)(C)N=C(N)N2)c1C	·	1	-4	-10	112*	-4
Cc1ccccc1NC1=NC(C)(C)N=C(N)N1	·	-4	-4	-12	-3	-5
C[C@@H]1CCCCO[C@@H](CN(C)C(=O)c2ccncc2)[C@@H](C)CN([C@@H](C)CO)C(=O)c2cc(NC(=O)c3ccccc3)ccc2O1	0	·	·	·	·	·
Cc1ccccc1S(=O)(=O)Oc1ccc2ccc(O)cc2c1	0	-2	74*	-13	19	1
Cc1ccccc1C(=O)Oc1cccc2c(O)cccc12	·	-2	13	3	11	-15
CC(=O)Nc1ccc(OS(=O)(=O)c2ccccc2C)cc1	·	·	·	·	·	6
Cc1ccccc1C(=O)Oc1ccc2ccc(O)cc2c1	·	3	62*	-12	12	·
C[C@@H]1CN([C@H](C)CO)C(=O)c2cc(NC(=O)Nc3cccc4ccccc34)ccc2O[C@@H](C)CCCCO[C@@H]1CN(C)S(=O)(=O)c1cn(C)cn1	0	1	-4	15	·	0

Source: PubChem BioAssay (Broad Institute)
